Apparent affinities of Ab-95 variants for a coronavirus HR2 peptide

All variants were tested on one target, the spike HR2 peptide PDVDLGDISGINAS (SARS-CoV-2).

Parent scFv Ab-95: VH joined to VL by three GGGGS repeats. Changes lie in the light chain CDRs alone.
VH: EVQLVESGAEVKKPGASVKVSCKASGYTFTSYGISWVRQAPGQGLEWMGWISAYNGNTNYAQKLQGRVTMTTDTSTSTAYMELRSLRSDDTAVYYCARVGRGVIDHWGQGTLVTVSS
VL: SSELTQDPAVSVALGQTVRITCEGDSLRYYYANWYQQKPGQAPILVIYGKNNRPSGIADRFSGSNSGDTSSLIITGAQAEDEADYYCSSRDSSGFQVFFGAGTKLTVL

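In library AAYL52, one, two or three CDR residues were substituted; doubles and triples were drawn at random. AlphaSeq pools MATa yeast showing the antibodies with MATalpha yeast showing the peptide. After mating in shaken culture at 30 °C for 16 h, diploids were selected and their barcode pairs sequenced. The ratio of observed to expected reads was calibrated, replicate by replicate, on BCL2-family standards whose Kd was known from biolayer interferometry. Each pool was mated in three replicate cultures.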

Positions count from residue 1 of the parent VL; Y30K puts K in place of Y. Every variant below is changed at S88 of the VL (sequential numbering). Each Kd is an estimate from the mating assay, the geometric mean of the replicates in which the pair was seen; lower is stronger. Where no diploid with the target was found in any replicate, the entry reads "nd": below detection, most likely a poor binder, though not proof of it. Entries are sorted by rising average, undetected variants last.

For Y30K S55W S88M, the assay gave 4.7 nM (3 of 3 replicates).
For S88A S89H F98S, the assay gave 85 nM (3 of 3 replicates).
For Y30M Y31H S88H, the assay gave 86 nM (3 of 3 replicates).
For S88E S93C G94C, the assay gave 180 nM (3 of 3 replicates).
For S88V F95W Q96I, the assay gave 300 nM (3 of 3 replicates).
For S88H S89H V97M, the assay gave 420 nM (1 of 3 replicates).
For S88I G94K Q96A, the assay gave 580 nM (3 of 3 replicates).
For Y29E S88T S93V, the assay gave 590 nM (2 of 3 replicates).
For S88F S89M S93M, the assay gave 600 nM (3 of 3 replicates).
For S88G D91Q F95T, the assay gave 780 nM (1 of 3 replicates).
For L27F S88R S89I, the assay gave 940 nM (3 of 3 replicates).
For N33H S88K S89I, the assay gave 1.4 µM (1 of 3 replicates).
For R53N S88H V97L, the assay gave 1.6 µM (1 of 3 replicates).
For Y30W K50Y S88A, the assay gave 1.6 µM (3 of 3 replicates).
For D25Q R28M S88G, the assay gave 2.4 µM (3 of 3 replicates).
For R28D S88F R90A, the assay gave 2.7 µM (1 of 3 replicates).
For Y29F N51H S88M, the assay gave 3.0 µM (3 of 3 replicates).
For Y31P S88Q V97I, the assay gave 4.0 µM (2 of 3 replicates).
For Y29N R53M S88H, the assay gave 8.3 µM (1 of 3 replicates).
For G49C S88D R90D, the assay gave 10 µM (2 of 3 replicates).
For A32C N51E S88Y, the assay gave 11 µM (2 of 3 replicates).
For N33K N52A S88D, the assay gave 11 µM (2 of 3 replicates).
For Y29G G49W S88M, the assay gave 12 µM (3 of 3 replicates).
For N51V S88T F95V, the assay gave 15 µM (3 of 3 replicates).
For S55F S88A S89K, the assay gave 17 µM (2 of 3 replicates).
For S88R S89C F95W, the assay gave 20 µM (2 of 3 replicates).
For S88T G94L V97R, the assay gave 21 µM (3 of 3 replicates).
For R28T N52A S88Y, the assay gave 22 µM (1 of 3 replicates).
For P54D S88K S89T, the assay gave 34 µM (2 of 3 replicates).
For G24N P54W S88Y, the assay gave 52 µM (3 of 3 replicates).
For R53T S88Q S92F, the assay gave 58 µM (2 of 3 replicates).
For L27I A32H S88K, the assay gave 110 µM (1 of 3 replicates).
For K50R S88V V97D, the assay gave 140 µM (2 of 3 replicates).
For L27K S88Q F95R, the assay gave nd (0 of 3 replicates).
For S88H D91Y S93K, the assay gave nd (0 of 3 replicates).
For G24S S88E, the assay gave nd (0 of 3 replicates).
For S88K S89F D91P, the assay gave nd (0 of 3 replicates).
For K50A S88F S89L, the assay gave nd (0 of 3 replicates).

In this assay the parent's reference entry averaged 200 nM; its copy inside this library read 180 nM. Nonspecific signal, from three strains lacking the peptide, appeared in 28% of pairings of library AAYL52, centred on 8.2 µM (5% of these signals below 800 nM); values are not corrected for it.

Values reported by Engelhart et al. 2022, doi:10.1038/s41597-022-01779-4 (FLAb copy).